Literature values as cited in patent US20180333418A1, “USE OF PAN FGFR INHIBITORS AND METHOD OF IDENTIFYING PATIENTS WITH CANCER ELIGIBLE FOR TREATMENT WITH A PAN FGFR INHIBITOR” (BAYER PHARMA AKTIENGESELLSCHAFT, priority 2014, published 2018).

Test system: circulating tumor cells of an ovarian cancer patient with FGFR2 fusion
Conditions: FGFR2 fusion in an ovarian cancer patient; Martignetti et al.; cited from earlier work

In the case of `CCN1CCN(c2ccc(Nc3cc(N(C)C(=O)Nc4c(Cl)c(OC)cc(OC)c4Cl)ncn3)cc2)CC1` [BGJ398], the “sensitivity of circulating tumor cells to treatment” value is given as “sensitive”.
